The results in this text go back to PMC5081515 (Scientific Reports, 2016).

By UniProt entry, the sequences of proteins in these tests, tags left out. Where a name states a change or a piece, a line headed by the entry shows the natural chain unless it says otherwise.
UniProt Q07010: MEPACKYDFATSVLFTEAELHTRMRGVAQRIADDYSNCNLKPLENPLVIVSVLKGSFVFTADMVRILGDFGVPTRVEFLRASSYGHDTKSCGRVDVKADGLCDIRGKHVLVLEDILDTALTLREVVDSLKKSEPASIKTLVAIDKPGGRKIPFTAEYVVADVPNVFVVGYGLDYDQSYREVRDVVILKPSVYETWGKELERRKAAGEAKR

The assay has as its target TbrHGPRT (Trypanosoma brucei brucei, UniProt Q07010). The assay is described as follows: Kinetic constants of naturally occurring substrates, continuous spectrophotometric assay. Type of assay: biochemical. Set-up: made in house; host or cells: E. coli BL-21 (DE3), pET-22b. As to conditions: for kcat: 0.03 M phosphate buffer, […] MgCl2, 1 mM DTT, pH 7.4, 25 °C. Here is the method: One unit of activity is defined as the number of μmol of purine base converted to its mononucleotide product per minute.
The kinetic constants were calculated using GraphPad Prism 6.0.

As a reminder, the kcat is the maximal rate divided by the concentration of active sites. As to `Nc1nc2nc[nH]c2c(=O)[nH]1` [Guanine], the kcat was determined as 23.8 ± 0.3 s⁻¹. Where the note is “listed as guanine”, the kcat came to 23.8 s⁻¹. For the setting “TbrHGPRT”, the “kcat/Km, fold higher than that of hypoxanthine” value came to 3.3 fold.
